Protein sequences, listed by entry. Tags and fused reporters are not part of them.
UniProt O75762, whole entry, looked up: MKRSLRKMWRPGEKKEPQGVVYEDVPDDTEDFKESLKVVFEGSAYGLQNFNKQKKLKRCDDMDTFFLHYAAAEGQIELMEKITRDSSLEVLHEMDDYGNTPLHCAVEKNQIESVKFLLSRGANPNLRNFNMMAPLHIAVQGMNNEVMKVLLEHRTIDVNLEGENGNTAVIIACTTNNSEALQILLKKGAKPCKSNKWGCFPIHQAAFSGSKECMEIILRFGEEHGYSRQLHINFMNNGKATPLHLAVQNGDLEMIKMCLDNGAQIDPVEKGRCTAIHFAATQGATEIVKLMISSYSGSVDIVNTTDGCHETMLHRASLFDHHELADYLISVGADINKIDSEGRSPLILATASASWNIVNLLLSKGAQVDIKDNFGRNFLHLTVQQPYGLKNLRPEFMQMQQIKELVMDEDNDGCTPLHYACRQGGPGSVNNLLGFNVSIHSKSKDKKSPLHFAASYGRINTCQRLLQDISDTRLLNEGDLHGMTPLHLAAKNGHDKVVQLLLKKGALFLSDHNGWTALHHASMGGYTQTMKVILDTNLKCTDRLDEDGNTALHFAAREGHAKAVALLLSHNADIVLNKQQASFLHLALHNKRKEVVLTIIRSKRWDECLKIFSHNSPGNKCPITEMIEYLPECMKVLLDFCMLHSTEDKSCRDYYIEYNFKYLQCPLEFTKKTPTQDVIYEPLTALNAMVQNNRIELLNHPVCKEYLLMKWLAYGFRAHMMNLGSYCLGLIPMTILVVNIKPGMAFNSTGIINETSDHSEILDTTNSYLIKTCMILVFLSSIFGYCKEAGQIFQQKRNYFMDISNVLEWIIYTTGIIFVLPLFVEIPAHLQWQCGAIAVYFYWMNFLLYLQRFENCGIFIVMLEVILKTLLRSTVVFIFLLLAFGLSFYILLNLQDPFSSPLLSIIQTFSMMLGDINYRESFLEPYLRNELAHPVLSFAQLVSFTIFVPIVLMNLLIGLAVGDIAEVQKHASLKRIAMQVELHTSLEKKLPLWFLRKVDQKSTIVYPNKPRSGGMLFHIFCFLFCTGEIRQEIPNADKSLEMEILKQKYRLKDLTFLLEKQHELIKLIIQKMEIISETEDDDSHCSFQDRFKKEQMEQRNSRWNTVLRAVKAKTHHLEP

In ChEMBL document CHEMBL1255565:

Biological target: Transient receptor potential cation channel subfamily A member 1 (Homo sapiens, UniProt O75762)
Assay: Agonist activity at human TRPA1 expressed in T-REx-HEK293 cells at -75 mV holding potential by patch-clamp electrophysiology

## S=C=NCc1ccccc1
  pEC50: 4.56
